{"source": "patent US7700560B2", "about": "(University of Maryland, Baltimore County, priority 2003, dated 2010)", "molecular_target": "T1, human GlxI (Homo sapiens, UniProt Q04760)", "T1 construct": "hGlxI from human erythrocytes; from tissue; host or cells: human erythrocytes", "T1 sequence (Q04760 2-184 limits assumed)": "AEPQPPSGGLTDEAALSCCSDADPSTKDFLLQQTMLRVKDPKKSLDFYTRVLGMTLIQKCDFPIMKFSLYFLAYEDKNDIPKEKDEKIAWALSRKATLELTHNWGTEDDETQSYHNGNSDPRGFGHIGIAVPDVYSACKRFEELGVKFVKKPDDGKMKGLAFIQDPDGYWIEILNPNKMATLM", "assay": "Competitive inhibition constants (Kis) with human GlxI", "type": "biochemical", "protocol": "Competitive inhibition constants (Kis) of bivalent and monovalent enzyme inhibitors with human GlxI or yeast GlxI (yGlxI) were obtained from the change in the initial rates of product formation at various concentrations of the substrate in the presence or absence of the inhibitor. To a 1 ml cuvette containing 50 mM sodium phosphate buffer, pH 7.0, 0.5 mM EDTA, 25° C. and different concentrations of thiohemiacetal substrates with fixed concentrations of inhibitor was added approximately 0.02 U of enzyme. The initial rates of product formation were followed on the basis of the increase in absorbancy at 240 nm. Inhibition constants were obtained by fitting the initial rate data to the equation for competitive inhibition."}
{"substance": "N—(O-propanoyl tetraethyleneglycolamine O,O′-dipropylamine diethyleneglycol bis(suberic acid) S—(N-p-bromo-phenyl-N-hydroxycarbamoyl)glutathione [polyBHG2-62]", "values": [{"measurement": "Ki", "value": 1, "unit": "nM"}]}
